The text below walks through data of PMC12117711, “The contribution of cyclic imide stereoisomers on cereblon-dependent activity†” (Chemical Science, 2025).

By UniProt entry, the sequences of proteins in these tests, tags left out. Where a name states a change or a piece, a line headed by the entry shows the natural chain unless it says otherwise. Residues count along the entry.
UniProt Q96SW2, whole entry: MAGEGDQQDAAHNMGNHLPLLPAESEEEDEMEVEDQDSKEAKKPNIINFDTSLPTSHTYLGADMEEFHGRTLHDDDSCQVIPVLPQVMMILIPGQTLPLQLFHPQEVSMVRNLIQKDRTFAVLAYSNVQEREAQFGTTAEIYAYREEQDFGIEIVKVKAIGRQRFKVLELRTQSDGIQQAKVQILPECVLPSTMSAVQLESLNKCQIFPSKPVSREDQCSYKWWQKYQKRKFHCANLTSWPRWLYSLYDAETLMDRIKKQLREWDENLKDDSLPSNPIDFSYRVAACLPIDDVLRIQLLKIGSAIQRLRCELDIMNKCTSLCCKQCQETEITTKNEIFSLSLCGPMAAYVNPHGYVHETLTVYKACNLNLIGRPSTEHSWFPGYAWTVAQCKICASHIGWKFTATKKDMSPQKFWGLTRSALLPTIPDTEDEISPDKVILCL
UniProt Q96SW2, 318-426 limits assumed: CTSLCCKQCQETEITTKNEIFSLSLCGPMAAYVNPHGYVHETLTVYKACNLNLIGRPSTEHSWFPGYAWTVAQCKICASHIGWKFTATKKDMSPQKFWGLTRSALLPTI
UniProt Q16531, whole entry partner: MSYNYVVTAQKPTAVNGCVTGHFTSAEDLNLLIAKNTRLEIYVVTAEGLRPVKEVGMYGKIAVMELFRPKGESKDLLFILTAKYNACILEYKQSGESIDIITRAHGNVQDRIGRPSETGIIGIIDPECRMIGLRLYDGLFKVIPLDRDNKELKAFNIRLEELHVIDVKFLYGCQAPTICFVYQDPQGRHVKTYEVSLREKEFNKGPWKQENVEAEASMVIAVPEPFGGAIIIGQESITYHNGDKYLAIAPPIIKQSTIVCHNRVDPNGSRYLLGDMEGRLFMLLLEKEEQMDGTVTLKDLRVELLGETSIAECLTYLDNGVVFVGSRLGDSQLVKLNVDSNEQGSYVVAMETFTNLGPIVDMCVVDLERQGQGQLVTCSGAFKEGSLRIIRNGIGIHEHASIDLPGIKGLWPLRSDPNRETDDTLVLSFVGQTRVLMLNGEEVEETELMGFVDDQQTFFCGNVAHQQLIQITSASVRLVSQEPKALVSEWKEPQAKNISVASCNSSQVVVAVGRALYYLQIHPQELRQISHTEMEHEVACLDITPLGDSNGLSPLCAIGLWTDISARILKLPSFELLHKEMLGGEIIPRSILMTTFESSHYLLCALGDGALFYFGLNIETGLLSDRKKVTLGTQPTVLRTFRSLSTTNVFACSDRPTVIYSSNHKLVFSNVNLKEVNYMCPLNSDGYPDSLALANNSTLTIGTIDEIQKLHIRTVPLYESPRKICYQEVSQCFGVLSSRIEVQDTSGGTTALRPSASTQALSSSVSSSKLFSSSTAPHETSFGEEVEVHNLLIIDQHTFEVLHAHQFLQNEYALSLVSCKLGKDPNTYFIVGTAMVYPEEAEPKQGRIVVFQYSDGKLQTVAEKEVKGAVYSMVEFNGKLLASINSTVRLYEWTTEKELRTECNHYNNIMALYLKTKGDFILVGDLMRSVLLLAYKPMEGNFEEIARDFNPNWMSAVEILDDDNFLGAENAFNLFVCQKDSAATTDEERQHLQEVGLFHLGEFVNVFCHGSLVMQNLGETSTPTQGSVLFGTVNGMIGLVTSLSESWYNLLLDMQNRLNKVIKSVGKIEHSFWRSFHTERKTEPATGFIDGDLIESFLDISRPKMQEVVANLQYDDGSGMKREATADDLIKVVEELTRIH

Where “and” joins values, the source holds several entries; their conditions need not be identical. Equal entries are not always repeated.

Test [1] addresses His6-CRBN/DDB1 and GST-BRD4(BD2) (Homo sapiens, UniProt O60885+Q96SW2). Briefly: AlphaScreen ternary complex formation, His6-CRBN/DDB1 and GST-BRD4(BD2). (Bead proximity is the source of the signal in Alpha formats.)
The target of a further test is His6-CRBN/DDB1 (Homo sapiens, UniProt Q96SW2). In words: TR-FRET ligand displacement assay (Thal-FITC tracer) with His6-CRBN/DDB1. As to conditions: Protein CRBN; for pIC50 (M) / IC50: Thalidomide-FITC tracer 50 nM; for IC50: protein […]; for Kd / pKD (M): from IC50 with Correction Factor 1.43.
Test [2] addresses thalidomide-binding domain of CRBN (Homo sapiens, UniProt Q96SW2). Briefly: TR-FRET ligand displacement assay with the thalidomide-binding domain. As to conditions: Protein CULT; for IC50: Thal-FITC tracer 775 nM, protein 50 nM; for Kd / pKD (M): from IC50 with Correction Factor 2.03.
The target of test [3] is His6-CRBN/DDB1 complex with BRD4(BD2) (Homo sapiens, UniProt O60885+Q96SW2). In words: TR-FRET ligand displacement assay with His6-CRBN/DDB1 in the presence of BRD4(BD2). As to conditions: Protein CRBN + BD2; for IC50: Thalidomide-FITC tracer 50 nM; for Kd / pKD (M): from IC50 with Correction Factor 1.43.

As a reminder, the IC50 is the concentration needed to halve the response being measured. The term Kd denotes the free concentration of one partner at which half of the binding sites on the other are occupied at equilibrium, for simple one-to-one binding. `Cc1sc2c(c1C)C(c1ccc(Cl)cc1)=N[C@@H](CC(=O)NCCCCCCCCC(=O)N[C@@H](Cc1ccccc1)C(=O)N[C@@H]1CC(=O)NC1=O)c1nnc(C)n1-2`: the “ternary complex formation between His6-CRBN/DDB1 and GST-BRD4(BD2)” value in test [1] is “minimally promoted the ternary complex”. Also, at His6-CRBN/DDB1, the “pIC50 (M)” value is given as 5.74 M, the IC50 is 1810 nM, the Kd came to 1270 nM and the “pKD (M)” value is listed as 5.90 M.

On to `[2H]C1([2H])C[C@@]([2H])(N2Cc3cc(NC(=O)CC4(CCC#C)N=N4)ccc3C2=O)C(=O)NC1=O`, for which, in test [2], the “pIC50 (M)” value turned out to be 4.64 M, the IC50 turned out to be 22900 nM, the Kd was determined as 11300 nM and the “pKD (M)” value is recorded as 4.95 M. At His6-CRBN/DDB1, the “pIC50 (M)” value came to 5.85 M, the IC50 came to 1410 nM, the Kd came out at 986 nM and the “pKD (M)” value is 6.01 M.

For the compound `[2H]C1([2H])C[C@]([2H])(N2Cc3cc(NC(=O)CC4(CCC#C)N=N4)ccc3C2=O)C(=O)NC1=O`, in test [2], the “pIC50 (M)” value was determined as 5.83 M, the IC50 amounted to 1480 nM, the Kd was determined as 733 nM and the “pKD (M)” value turned out to be 6.13 M. For the same compound, at His6-CRBN/DDB1, the “pIC50 (M)” value worked out at 7.99 M; the dissociation constant Kd was 7.17 nM and 7 nM; the “pKD (M)” value is listed as 8.14 M.

Consider `C#CCCC1(CC(=O)Nc2ccc3c(c2)CN(C2CCC(=O)NC2=O)C3=O)N=N1` (racemic), for which, in test [2], the “pIC50 (M)” value worked out at 5.59 M, the IC50 is 2540 nM, the Kd was determined as 1260 nM and the “pKD (M)” value was 5.90 M. Also, on His6-CRBN/DDB1, the “pIC50 (M)” value is listed as 7.57 M; the Kd was 18.9 nM and 19 nM; the “pKD (M)” value was 7.72 M.

Turning to `[2H]C1([2H])CC([2H])(N2Cc3cc(NC(=O)CC4(CCC#C)N=N4)ccc3C2=O)C(=O)NC1=O` (racemic), in test [2], the “pIC50 (M)” value was 5.58 M; the IC50 was 2630 nM and 2640 nM; the Kd was 1300 nM; the “pKD (M)” value was found to be 5.89 M. Further, at His6-CRBN/DDB1, the “pIC50 (M)” value is 7.60 M; the Kd was 17.7 nM and 18 nM; the “pKD (M)” value was found to be 7.75 M.

Take `[2H]C1([2H])CC([2H])(N2Cc3cc(NC(=O)CCCCCCCCNC(=O)C[C@@H]4N=C(c5ccc(Cl)cc5)c5c(sc(C)c5C)-n5c(C)nnc54)ccc3C2=O)C(=O)NC1=O` (mixture of isomers): in test [3], the “pIC50 (M)” value is given as 7.07 M; the IC50 is 84.3 nM and 84 nM; the Kd was 59.1 nM and 59 nM; the “pKD (M)” value came to 7.23 M. Also, on His6-CRBN/DDB1, the “pIC50 (M)” value is 8.45 M and the IC50 was 3.53 nM.

With `Cc1ccc(NC(=O)NCc2ccc3c(c2)CN(C2CCC(=O)NC2=O)C3=O)cc1Cl` (racemic) [rac-CC-885], on His6-CRBN/DDB1, the “pIC50 (M)” value is listed as 8.21 M.

Regarding `[2H]C1([2H])C[C@@]([2H])(N2Cc3cc(CNC(=O)Nc4ccc(C)c(Cl)c4)ccc3C2=O)C(=O)NC1=O` [(R)-CC885-d3], at His6-CRBN/DDB1, the “pIC50 (M)” value is on record as 6.24 M, the IC50 worked out at 572 nM and the “pKD (M)” value is reported as 6.40 M.

`[2H]C1([2H])C[C@]([2H])(N2Cc3cc(CNC(=O)Nc4ccc(C)c(Cl)c4)ccc3C2=O)C(=O)NC1=O` [(S)-CC885-d3]: at His6-CRBN/DDB1, the “pIC50 (M)” value is 8.36 M and the IC50 worked out at 4.41 nM.

For `[2H]C1([2H])C[C@@]([2H])(N2Cc3cc(NC(=O)CCCCCCCCNC(=O)C[C@@H]4N=C(c5ccc(Cl)cc5)c5c(sc(C)c5C)-n5c(C)nnc54)ccc3C2=O)C(=O)NC1=O` [JQ1-(R)-Len-d3], in test [3], the “pIC50 (M)” value turned out to be 6.26 M, the IC50 was 556 nM, the Kd worked out at 390 nM and the “pKD (M)” value turned out to be 6.41 M. In addition, on His6-CRBN/DDB1, the “pIC50 (M)” value is reported as 6.95 M, the concentration for half-maximal inhibition (IC50) was found to be 112 nM, the Kd was 78.9 nM and the “pKD (M)” value came out at 7.10 M.

Consider `[2H]C1([2H])C[C@]([2H])(N2Cc3cc(NC(=O)CCCCCCCCNC(=O)C[C@@H]4N=C(c5ccc(Cl)cc5)c5c(sc(C)c5C)-n5c(C)nnc54)ccc3C2=O)C(=O)NC1=O` [JQ1-(S)-Len-d3], for which, in test [3], the “pIC50 (M)” value stood at 7.37 M; the IC50 was 42.7 nM and 43 nM; the Kd was 29.9 nM and 30 nM; the “pKD (M)” value is reported as 7.52 M. In addition, at His6-CRBN/DDB1, the “pIC50 (M)” value was found to be 8.78 M and the IC50 was 1.65 nM.
